From publication PMC6272893, “NO-Releasing Enmein-Type Diterpenoid Derivatives with Selective Antiproliferative Activity and Effects on Apoptosis-Related Proteins” (Molecules, 2016)

Test system: L-02 normal liver cells
Experiment: MTT antiproliferative assay, L-02
Format: cell-based
Conditions: selectivity between tumor and normal liver cells
Protocol: [The source words this procedure for another cell line and reports this cell line under the same test.] Cytotoxicity assay in vitro was employed by the MTT assay following the methodology described previously, which was performed in flat-bottomed 96-well plates. In short, exponentially growing MGC-803 cells at the log phase were added to each well at a density of 5 × 10^3 per well, then treated with serial dilutions of the compounds in three replicates at various concentrations (0.039–40 µg/mL). After 72 h, 20 µL of MTT solution (5 mg/mL) per well was added to each cultured medium. Then, DMSO was added to each well (150 µL/well). After 10 min at room temperature, the absorbance (OD) was read on a microplate reader at the wavelength of 490 nm (BIO-RAD Instruments Inc. 550, Hercules, CA, USA). In these experiments, taxol was used as the positive reference with the concentration of 10 µg/mL.

**Q.** `C=C1C(=O)C23C(=O)OC4CCC(C)(C)C5C(=O)OCC45C2CCC1C3O` (stereo not shown) [Compound 9] was tested. Which “SI (selectivity index)” value did it give?
**A.** The value was ~1.6.
